From article PMC4169866 (Investigational New Drugs, 2014)

What was measured:
[1] = tested on: Colo-205 colorectal xenografts; assay: Subcutaneous colo-205 xenograft antitumor activity; type: in vivo, mice; conditions: colo-205, 56 days, either schedule
[2] = tested on: Calu-6 lung xenografts; assay: Subcutaneous Calu-6 xenograft antitumor activity; type: in vivo, mice; conditions: 50 mg/kg LY2835219 oral, 60 or 150 mg/kg gemcitabine i.p.
[3] = biological target: T1, DYRK2 (Homo sapiens, UniProt Q92630); assay: Millipore (UBI) kinase panel DYRK2; conditions: read-out: IC50 DYRK2; generated at millipore (UBI) kinase panel
T1 sequence (Q92630 1-601): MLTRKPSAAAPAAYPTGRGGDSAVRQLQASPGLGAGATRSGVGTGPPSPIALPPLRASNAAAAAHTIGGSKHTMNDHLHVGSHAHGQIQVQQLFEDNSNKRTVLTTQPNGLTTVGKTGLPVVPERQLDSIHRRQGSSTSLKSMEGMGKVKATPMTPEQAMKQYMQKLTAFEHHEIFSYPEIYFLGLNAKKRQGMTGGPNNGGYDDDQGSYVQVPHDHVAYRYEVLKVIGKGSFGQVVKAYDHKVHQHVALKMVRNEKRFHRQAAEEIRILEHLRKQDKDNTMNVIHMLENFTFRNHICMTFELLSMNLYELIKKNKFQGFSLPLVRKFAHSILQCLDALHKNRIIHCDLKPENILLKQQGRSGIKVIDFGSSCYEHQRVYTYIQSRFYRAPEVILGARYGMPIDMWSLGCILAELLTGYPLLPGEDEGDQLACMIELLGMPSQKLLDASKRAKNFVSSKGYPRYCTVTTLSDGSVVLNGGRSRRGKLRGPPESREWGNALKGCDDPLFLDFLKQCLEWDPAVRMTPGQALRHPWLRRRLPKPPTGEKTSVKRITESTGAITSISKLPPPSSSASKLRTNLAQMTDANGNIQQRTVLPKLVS

Which results are given for `CCN1CCN(Cc2ccc(Nc3ncc(F)c(-c4cc(F)c5nc(C)n(C(C)C)c5c4)n3)nc2)CC1` [LY2835219, [5-(4-Ethyl-piperazin-1-ylmethyl)-pyridin-2-yl]-[5-fluoro-4-(7-fluoro-3-isopropyl-2-methyl-3H-benzoimidazol-5-yl)-pyrimidin-2-yl]-amine]?
tumor outgrowth with prolonged treatment (acquired resistance) [1]: No tumor outgrowth; tumor growth inhibition, compound alone [2]: active in inhibiting tumor growth; IC50 [3]: 61 nM
